Source: paper PMC3530405 (Journal of immunology (Baltimore, Md. : 1950), 2012)

The chains behind the UniProt entries cited, without tags or fusion partners.
UniProt Q6P179, whole entry K392N: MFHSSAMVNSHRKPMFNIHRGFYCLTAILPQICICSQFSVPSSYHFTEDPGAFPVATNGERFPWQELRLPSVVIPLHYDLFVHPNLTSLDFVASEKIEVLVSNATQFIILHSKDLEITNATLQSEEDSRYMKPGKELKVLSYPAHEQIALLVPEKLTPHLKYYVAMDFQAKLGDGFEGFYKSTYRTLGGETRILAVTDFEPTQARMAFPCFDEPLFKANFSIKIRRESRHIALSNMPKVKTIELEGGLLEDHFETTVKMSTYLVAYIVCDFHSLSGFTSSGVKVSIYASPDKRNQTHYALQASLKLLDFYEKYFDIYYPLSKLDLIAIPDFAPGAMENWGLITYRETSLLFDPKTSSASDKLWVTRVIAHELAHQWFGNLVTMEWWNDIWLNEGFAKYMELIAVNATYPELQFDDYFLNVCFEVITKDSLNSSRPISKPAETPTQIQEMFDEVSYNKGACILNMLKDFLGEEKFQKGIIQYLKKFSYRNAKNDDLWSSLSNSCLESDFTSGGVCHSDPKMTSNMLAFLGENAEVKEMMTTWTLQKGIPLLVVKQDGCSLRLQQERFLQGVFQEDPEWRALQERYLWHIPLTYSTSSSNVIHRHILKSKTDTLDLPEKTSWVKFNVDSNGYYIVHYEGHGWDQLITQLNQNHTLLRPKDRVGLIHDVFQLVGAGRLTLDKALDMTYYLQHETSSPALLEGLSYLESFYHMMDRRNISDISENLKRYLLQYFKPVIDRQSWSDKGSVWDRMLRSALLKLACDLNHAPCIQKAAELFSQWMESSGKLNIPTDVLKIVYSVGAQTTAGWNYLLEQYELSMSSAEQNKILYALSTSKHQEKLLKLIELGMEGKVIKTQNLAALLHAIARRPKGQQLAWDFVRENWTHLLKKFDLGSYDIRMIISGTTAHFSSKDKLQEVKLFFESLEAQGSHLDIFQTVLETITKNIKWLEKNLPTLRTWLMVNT

Biological target: ERAP2^N (Homo sapiens, UniProt Q6P179, K392N)
Test: Peptide trimming by ERAP2^N
Type: biochemical
Conditions: 37°C

## KSLYNTVATL
ERAP2^N and ERAP2^K, 20 μM peptide, 50 mM HEPES pH 7.0, 100 mM NaCl
  epitope production, comparison of alleles: produced equally effectively by both ERAP2 alleles
ERAP2^N vs ERAP2^K, 20 μM precursor, pH 7.0
  trimming rates, comparison of alleles: almost identical rates by both ERAP2 alleles
